The data set is described as follows: Half life in human liver microsomes. In kind it is ADME, Microsome. A general note: Microsomes from liver hold many membrane-bound enzymes, among them those of drug oxidation.

In turn, `COc1cc(/C(=N\N)c2csc(-c3ccccc3)n2)cc(OC)c1OC` gave a half-life of 55 min.

Compound `COc1cc(/C(=N/N)c2csc(-c3ccccc3)n2)cc(OC)c1OC` showed a half-life of 55 min.

Broadly, the half-life is the time in which the quantity being followed falls by half. Read a low half-life as fast loss.

The values are drawn from ChEMBL document CHEMBL1828586 (J Med Chem, 2011).
